Test results taken from patent US9518033B2, “(4E)-4-(4-substituted benzylideneamino)-2,3-dihydro-3-substituted-2-thioxothiazole-5-carbonitriles as A2AR antagonist and process for preparation thereof” (COUNCIL OF SCIENTIFIC & INDUSTRIAL RESEARCH, priority 2013, dated 2016).

Molecular target: T1, human A2A receptors (Homo sapiens, UniProt P29274)
T1 construct: expressed in transfected cells; host or cells: HEK 293T
Assay: cAMP functional assay in NECA stimulated HEK293T cells
Format: cell-based
Settings: NECA stimulated HEK293T cells treated with 1 μM compound
Procedure: Standard curve was prepared using Logit-Log Paper plot by drawing percent bound (B/Bo) versus concentration of cAMP for the standards. The concentration of the cAMP in the samples was determined by interpolation.

cAMP concentration: 0.56 pmol/mL
Compound: N#Cc1sc(=S)n(-c2ccccc2)c1/N=C/c1ccc(Br)cc1 [Compound 2n, (4E)4-(4-bromobenzylideneamino)-3-phenyl-2,3-dihydro-2-thioxothiazole-5-carbonitrile]
